Values of other authors as cited in US20140023701A1, “Method and Composition for Ameliorating the Effects tor a Subject Exposed to Radiation or Other Sources of Oxidative Stress” (priority 2011, published 2014).

Tests used:
[1] = tested on: Human; details: tolerable upper intake level, daily intake
[2] = tested on: Human

Substance	Human UL (19-70 yo group) [1] [mg]	Human NOAEL [2] [mg]
Boron	20	–
thiamine mononitrate	–	50
